# scFv variants of Ab-14 (light chain) against a SARS-CoV-2 spike peptide

Data: MIT Lincoln Laboratory AlphaSeq set, Engelhart et al. 2022, doi:10.1038/s41597-022-01779-4, as distributed in FLAb.

Target peptide (SARS-CoV-2 spike, HR2 region): PDVDLGDISGINAS

Parent: Ab-14, a human scFv built as VH, a (GGGGS)3 linker, VL. Only the CDRs of the light chain vary.
VH: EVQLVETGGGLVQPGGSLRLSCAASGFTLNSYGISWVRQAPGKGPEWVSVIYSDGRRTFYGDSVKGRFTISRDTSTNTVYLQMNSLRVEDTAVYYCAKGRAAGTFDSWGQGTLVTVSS
VL: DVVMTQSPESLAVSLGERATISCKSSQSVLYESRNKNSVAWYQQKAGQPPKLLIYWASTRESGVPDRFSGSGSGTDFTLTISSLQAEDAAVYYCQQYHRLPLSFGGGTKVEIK

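Phage display of a naive human antibody library on the peptide gave the parent. Variants in AAYL50 differ from the parent at up to three CDR positions; double and triple changes were sampled at random. The assay is AlphaSeq: two haploid yeast populations carry antibody and antigen on their surface. The frequency of each diploid, read from paired DNA barcodes, reflects how well the two displayed proteins bind. The ratio of observed to expected reads was calibrated, replicate by replicate, on BCL2-family standards whose Kd was known from biolayer interferometry. Mating was done three times.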

Substitutions are numbered in sequence along the VL above, starting at 1 (not Kabat).
The read-out is the apparent dissociation constant on a log10 scale (nM): the lower, the stronger.
Averages over replicates are reported, and they cover detected replicates only.
An entry "no signal" has no value in the source: the pair was not observed among the diploids in any replicate. This suggests poor binding but is not conclusive.
Three control strains display no target. For library AAYL50, 18% of the pairings with them gave a signal, with a median of 4.19 and one signal in twenty below 2.99, so weak values seen in few replicates may be background. The control count says in how many pairings with the empty strains this scFv gave a signal.

changes	mean, log10 nM	replicates with signal	signal with controls
S28T+T59Y+Y97W	1.89	3/3	0/9
E32W+S33Q+R99H	1.87	3/3	0/9
S33A+N37Q+E61L	2.16	3/3	1/9
L30F+R34I+P101G	2.08	3/3	2/9
R60Q+Y97M	2.85	3/3	0/9
R60K+Q96W	3.58	1/3	1/9
S25M+T59V+R99V	0.92	3/3	1/9
L30V+S38R+E61Q	5.28	1/3	0/9
L30F+S58P+L100G	5.02	2/3	4/9
Y31L+N35R+P101F	1.16	3/3	6/9
N37H+E61F+Q96E	2.28	3/3	0/9
S28E+E32I+T59R	no signal	0/3	0/9
Y31A+Q95P+Y97K	4.10	1/3	1/9
Q27D+E32P+N37I	2.32	1/3	1/9
S25M+N35L+L100P	5.12	2/3	1/9
S33H+N35F+S58E	3.80	1/3	1/9
K36G+V39W+L102S	no signal	0/3	2/9
A40C+L100K+S103M	3.60	1/3	1/9
V39F+A40R+S62G	1.54	3/3	4/9
K24A+Q27G+R34V	3.27	2/3	0/9
Y31K+S38R+V39R	no signal	0/3	0/9
S33H+E61Y+H98F	1.33	3/3	1/9
V29I+A57F+E61S	no signal	0/3	0/9
V29L+L30P+R34N	0.50	3/3	1/9
S28M+E32H+N37P	2.40	3/3	1/9
L30E+S33V+Q95S	3.99	2/3	4/9
R34D+A40I	no signal	0/3	1/9
Q27A+R60M+E61Y	3.90	2/3	2/9
S38Q+S58Q+R99Y	4.01	2/3	0/9
S25M+Q96M+L100H	0.17	3/3	0/9
S33I+Q95R+S103M	3.91	1/3	3/9
S28E+K36R+S38T	3.68	3/3	3/9
E61G+R99A+L100N	no signal	0/3	0/9
N35M+S62W+H98K	3.51	3/3	2/9
Q27F+N37A+E61P	1.88	3/3	3/9
A57W+R60F+S103C	no signal	0/3	1/9
A40V+Q95A	no signal	0/3	2/9
Q27L+V29Y+L102A	0.72	3/3	2/9

The remaining entries, values ahead:

mean, log10 nM	replicates with signal	signal with controls	changes
0.09	3/3	1/9	S33W+N37G+W56Q
2.13	3/3	5/9	L30G+N37A+Q96A
no signal	0/3	0/9	S25W+L30M+E61I
0.66	3/3	1/9	Q27N+V29H
1.73	3/3	0/9	W56C+L102V+S103Y
5.06	3/3	7/9	L30V+N37I+A40C
no signal	0/3	0/9	S28P+R60G
3.82	1/3	1/9	S26I+S33T+A57Q
4.05	2/3	3/9	S28R+S58T+Q96E
2.94	1/3	1/9	S26I+A57C
1.70	3/3	0/9	V29G+R34A+R99Y
0.48	3/3	0/9	Q27V+L30S+S103G
0.40	3/3	1/9	S25N+E61V+S62N
no signal	0/3	0/9	N35D+A40S+Q95P
no signal	0/3	0/9	N35E+Q96L+H98M
3.92	2/3	3/9	K24N+S25C+K36M
2.97	3/3	3/9	E32H+R34P+S103F
4.84	2/3	2/9	E32H+T59P+L100F
4.59	3/3	2/9	V29T+E32Q+Q95G
1.41	3/3	6/9	N35H+H98A+P101N
no signal	0/3	0/9	S58A+R60H+L100K
2.59	2/3	1/9	S28Q+E32K
2.29	3/3	5/9	V29A+V39F
2.74	3/3	1/9	S25D+S26A+R99A
2.39	3/3	1/9	Q27G+S38G+H98L
1.53	2/3	0/9	S28D+V29I+L102C
4.18	3/3	2/9	N37D+T59K+Q95G
1.03	3/3	0/9	K24N+S25V+S38G
no signal	0/3	0/9	E32M+S38V+S62K
3.43	2/3	2/9	Q96Y+Y97C+L100C
4.57	1/3	1/9	E32S+W56I+Q96N
no signal	0/3	2/9	N35R+A40G+E61R
0.46	3/3	3/9	S25C+K36S+L102N
no signal	0/3	2/9	A57S+R99Q+P101V
1.46	3/3	1/9	S25Q+S33W+S62T
5.20	1/3	1/9	R60F+P101F
3.02	3/3	1/9	T59K+E61T+Q96M
5.79	1/3	1/9	A40R+R60N+S62D
2.54	3/3	4/9	W56Q+T59L+Y97H

Extract of 7 entries:

changes	mean, log10 nM	replicates with signal	signal with controls
T59K+E61T+Q96M	3.02	3/3	1/9
S38Q+S58Q+R99Y	4.01	2/3	0/9
Q27F+N37A+E61P	1.88	3/3	3/9
S28E+K36R+S38T	3.68	3/3	3/9
E32H+R34P+S103F	2.97	3/3	3/9
S26I+A57C	2.94	1/3	1/9
S26I+S33T+A57Q	3.82	1/3	1/9